Reference: patent publication US8937048B2, “Anti-angiogenic compounds” (Covx Technologies Ireland, Limited, priority 2008, dated 2015)
pIC50: −log10 of the molar value.

Target: T1, human angiopoietin-2 protein (Homo sapiens, UniProt O15123)
T1 construct: purchased R&D Systems
T1 sequence (O15123 19-496): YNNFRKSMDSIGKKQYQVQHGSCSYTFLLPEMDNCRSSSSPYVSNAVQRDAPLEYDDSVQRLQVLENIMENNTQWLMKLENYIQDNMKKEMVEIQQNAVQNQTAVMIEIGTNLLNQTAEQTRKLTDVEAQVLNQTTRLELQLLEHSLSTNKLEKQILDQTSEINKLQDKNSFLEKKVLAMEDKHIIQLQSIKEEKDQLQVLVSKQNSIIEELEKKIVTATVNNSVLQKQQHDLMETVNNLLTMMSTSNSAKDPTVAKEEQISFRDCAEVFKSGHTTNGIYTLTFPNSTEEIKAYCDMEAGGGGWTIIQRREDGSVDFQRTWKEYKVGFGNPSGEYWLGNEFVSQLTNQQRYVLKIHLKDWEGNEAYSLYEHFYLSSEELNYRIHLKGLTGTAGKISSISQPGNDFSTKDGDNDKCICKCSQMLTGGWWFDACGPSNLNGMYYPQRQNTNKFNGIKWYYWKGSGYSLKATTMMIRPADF
Assay: Ang2 competitive ELISA (Ang-2 coated, Tie-2-Fc competition)
Type: binding
Conditions: Table 6, column P
Description: The ability of Ang2 binding compounds to interact with Ang2 was measured by competition with Tie-2. These tests were described in US2008166364 (and also in PCT/IE2007/000110), whose contents are herein incorporated by reference in their entirety. In particular, those portions of PCT/IE2007/000110 and US2008166364 detailing the advantages and disadvantages of various Ang2-binding peptides, and the advantages and disadvantages of covalently linking certain Ang2-binding peptides to catalytic antibodies (and those portions specifically relating to linking to h38C2), as well as the advantages and disadvantages of using specific residues of the respective Ang2-specific peptide as the linking residue (in this context, linking residue meaning the residue covalently linked to the linker (for example as used herein in Example 4)). For competitive ELISA, human angiopoietin-2 protein and Tie-2-Fc (R&D Systems) were reconstituted without carrier protein. Mouse anti-human Tie-2 (Pharmingen) was used as the primary antibody and goat anti-mouse-IgG 1-HRP (Pierce) was used as the secondary antibody. TMB substrate from Pierce was used.
High-binding half-well plates were coated with Ang-2 (100 ng/well) in 50 W PBS and incubated at 4° C. overnight. […] Color development was monitored and stopped with 25 μl of 2 M H2SO4. OD450 nm with a correction wavelength of 540 nm was measured.

pIC50: 7.84
Compound: CSCC[C@H](NC(=O)[C@H](Cc1ccccc1)NC(=O)[C@H](CCC(N)=O)NC(=O)[C@H](CC(=O)O)NC(=O)[C@H](Cc1ccc(O)cc1)NC(=O)[C@H](CC(C)C)NC(=O)[C@@H](NC(=O)[C@H](CCCCN)NC(=O)[C@H](CC(=O)O)NC(=O)[C@H](CC(C)C)NC(=O)[C@H](CCC(=O)O)NC(=O)[C@H](CC(=O)O)NC(=O)[C@H](CC(C)C)NC(=O)[C@@H]1CCCN1C(=O)[C@H](CCC(N)=O)NC(=O)[C@H](Cc1ccc(O)cc1)NC(=O)[C@H](CCCCNC(C)=O)NC(=O)[C@H](CCC(N)=O)NC(C)=O)[C@@H](C)O)C(=O)N[C@@H](CC(C)C)C(=O)N[C@@H](CCC(N)=O)C(=O)N[C@@H](CCC(N)=O)C(=O)NCC(N)=O [Compound 4022]
